# Read-outs that look alike come from different tables or passages of the source.
# Test system: CDC1551(ΔdosR) mutant
# Format: cell-based
# Conditions: for log2 Fold change: DosR mutant
# [1] = gene MT2504 Rv2429 ahpD, HC101A vs DMSO
# [2] = gene MT3118 Rv3033, HC101A vs DMSO
compound,measurement,setting,value
"C[C@@H]1CC[C@H]2[C@@H](C)C(=O)O[C@@H]3O[C@]4(C)CC[C@@H]1[C@]32OO4 [HC101A, artemisinin, reference compound]",DosR DMSO/DosR HC101A Fold change,"gene MT1854 Rv1804c, HC101A vs DMSO",0.4661
same,DosR DMSO/DosR HC101A Fold change,"gene MT1893 Rv1845c, HC101A vs DMSO",2.084
same,DosR DMSO/DosR HC101A Fold change,"gene MT1922 Rv1873, HC101A vs DMSO",0.4023
same,DosR DMSO/DosR HC101A Fold change,"gene MT1969 Rv1918c PPE, HC101A vs DMSO",0.497
same,DosR DMSO/DosR HC101A Fold change,"gene MT2040 Rv1986, HC101A vs DMSO",0.1916
same,DosR DMSO/DosR HC101A Fold change,"gene MT2126 Rv2066 cobl, HC101A vs DMSO",2.068
same,DosR DMSO/DosR HC101A Fold change,"gene MT2166 Rv2107 PE, HC101A vs DMSO",0.2681
same,DosR DMSO/DosR HC101A Fold change,"gene MT2167 Rv2108 PPE, HC101A vs DMSO",0.3139
same,DosR DMSO/DosR HC101A Fold change,"gene MT2168, HC101A vs DMSO",0.3901
same,DosR DMSO/DosR HC101A Fold change,"gene MT2264 Rv2208 cobS, HC101A vs DMSO",2.402
same,DosR DMSO/DosR HC101A Fold change,"gene MT2278 Rv2220 glnA1, HC101A vs DMSO",0.4388
same,DosR DMSO/DosR HC101A Fold change,"gene MT2284 Rv2225 panB, HC101A vs DMSO",0.4983
same,DosR DMSO/DosR HC101A Fold change,"gene MT2304 Rv2244 acpM, HC101A vs DMSO",0.3649
same,DosR DMSO/DosR HC101A Fold change,"gene MT2305 Rv2245 kasA, HC101A vs DMSO",0.4366
same,DosR DMSO/DosR HC101A Fold change,"gene MT2306, HC101A vs DMSO",0.4941
same,DosR DMSO/DosR HC101A Fold change,"gene MT2391 Rv2329c narK1, HC101A vs DMSO",0.4803
same,DosR DMSO/DosR HC101A Fold change,"gene MT2417, HC101A vs DMSO",0.4621
same,DosR DMSO/DosR HC101A Fold change,"gene MT2503 Rv2428 ahpC, HC101A vs DMSO",0.4435
same,DosR DMSO/DosR HC101A Fold change,[1],0.4503
same,log2 Fold change,[1],−1.151
same,DosR DMSO/DosR HC101A Fold change,"gene MT2506, HC101A vs DMSO",0.4797
same,DosR DMSO/DosR HC101A Fold change,"gene MT2526 Rv2450c, HC101A vs DMSO",0.4891
same,DosR DMSO/DosR HC101A Fold change,"gene MT2615 Rv2540c aroF, HC101A vs DMSO",2.642
same,DosR DMSO/DosR HC101A Fold change,"gene MT2631, HC101A vs DMSO",2.089
same,DosR DMSO/DosR HC101A Fold change,"gene MT2698 Rv2623, HC101A vs DMSO",0.4756
same,DosR DMSO/DosR HC101A Fold change,"gene MT2778 Rv2705c, HC101A vs DMSO",0.4964
same,DosR DMSO/DosR HC101A Fold change,"gene MT2849 Rv2779c, HC101A vs DMSO",0.3146
same,DosR DMSO/DosR HC101A Fold change,"gene MT2850 Rv2780 ald, HC101A vs DMSO",0.2752
same,DosR DMSO/DosR HC101A Fold change,"gene MT2863 Rv2794c, HC101A vs DMSO",2.029
same,DosR DMSO/DosR HC101A Fold change,"gene MT3065 Rv2987c leuD, HC101A vs DMSO",0.4683
same,DosR DMSO/DosR HC101A Fold change,"gene MT3110 Rv3026c, HC101A vs DMSO",3.057
same,DosR DMSO/DosR HC101A Fold change,[2],0.4507
same,log2 Fold change,[2],−1.15
same,DosR DMSO/DosR HC101A Fold change,"gene MT3132, HC101A vs DMSO",0.2656
same,DosR DMSO/DosR HC101A Fold change,"gene MT3133 Rv3048c nrdG, HC101A vs DMSO",0.2486
same,DosR DMSO/DosR HC101A Fold change,"gene MT3134 Rv3049c, HC101A vs DMSO",0.2205
same,DosR DMSO/DosR HC101A Fold change,"gene MT3178 Rv3094c, HC101A vs DMSO",0.4007
same,DosR DMSO/DosR HC101A Fold change,"gene MT3293 Rv3199c, HC101A vs DMSO",2.055
same,DosR DMSO/DosR HC101A Fold change,"gene MT3327 Rv3230c, HC101A vs DMSO",2.211
same,DosR DMSO/DosR HC101A Fold change,"gene MT3441 Rv3338, HC101A vs DMSO",0.3206
same,DosR DMSO/DosR HC101A Fold change,"gene MT3481 Rv3371, HC101A vs DMSO",0.4661
same,DosR DMSO/DosR HC101A Fold change,"gene MT3492 Rv3384c, HC101A vs DMSO",2.073
same,DosR DMSO/DosR HC101A Fold change,"gene MT3498 Rv3391 acrA1, HC101A vs DMSO",0.4878
same,DosR DMSO/DosR HC101A Fold change,"gene MT3539 Rv3433c, HC101A vs DMSO",2.35
same,DosR DMSO/DosR HC101A Fold change,"gene MT3581 Rv3477 PE, HC101A vs DMSO",0.3397
same,DosR DMSO/DosR HC101A Fold change,"gene MT3591 Rv3487c lipF, HC101A vs DMSO",0.406
same,DosR DMSO/DosR HC101A Fold change,"gene MT3696 Rv3590c PE_PGRS, HC101A vs DMSO",2.529
same,DosR DMSO/DosR HC101A Fold change,"gene MT3947 Rv3839, HC101A vs DMSO",0.4526
same,DosR DMSO/DosR HC101A Fold change,"gene MT3963 Rv3848, HC101A vs DMSO",0.4943
same,DosR DMSO/DosR HC101A Fold change,"gene MT3969 Rv3854c, HC101A vs DMSO",0.2468
same,DosR DMSO/DosR HC101A Fold change,"gene MT3970 Rv3855, HC101A vs DMSO",0.3536
same,DosR DMSO/DosR HC101A Fold change,"gene MT3976 Rv3862c, HC101A vs DMSO",0.3824
same,DosR DMSO/DosR HC101A Fold change,"gene MT3978 Rv3864, HC101A vs DMSO",0.3995
same,DosR DMSO/DosR HC101A Fold change,"gene MT3988 Rv3874, HC101A vs DMSO",0.4777
same,DosR DMSO/DosR HC101A Fold change,"gene MT3989 Rv3875 esat6, HC101A vs DMSO",0.4854

# Reference: patent US11717508B2, “Compounds, compositions, and methods for inhibiting bacterial growth” (priority 2016, dated 2023)
